# Reference: patent publication EP4831185A1, “NOVEL IDEBENONE PHOSPHATE, SALT COMPOUND THEREOF, PREPARATION METHOD THEREFOR AND USE THEREOF” (dated 2026)
# Experiments:
# [1] = system: neuroblastoma (SH-SY5Y) cell; assay: Oxygen-glucose deprivation/reoxygenation (OGD/R) induced cell injury, CCK-8 cell survival; settings: mean ± SD
# [2] = oral administration; cited from earlier work
# [3] = system: mice; settings: cited from earlier work
# [4] = system: rats; settings: cited from earlier work
# [5] = Water solubility test (Chinese Pharmacopoeia 2020 method); settings: pure water, 25°C±2°C, dissolution within 30 minutes
# [6] = system: tMCAO rats; assay: Focal cerebral ischemia tMCAO reperfusion model, cerebral infarct by TTC staining; settings: for reduction of the cerebral infarct volume: tail vein immediately after reperfusion, 24 hours after ischemia
smiles,measurement,setting,value
COC1=C(OC)C(=O)C(CCCCCCCCCCO)=C(C)C1=O,Cell survival rate (%),"[1]; 0.3 µM, n = 3",79.92±3.12%
same,Cell survival rate (%),"[1]; 1 µM, n = 3",87.40±4.72%
same,Cell survival rate (%),"[1]; 3 µM, n = 3",95.71±0.87 %
same,dose reaching the systemic blood circulation (bioavailability),[2],1%
same,oral LD50,[3],greater than 10000 mg/kg
same,oral LD50,[4],greater than 10000 mg/kg
COC1=C(OC)C(=O)C(CCCCCCCCCCOP(=O)(O)O)=C(C)C1=O.N.N,Cell survival rate (%),"[1]; 0.3 µM, n = 3",79.92±1.24%
same,Cell survival rate (%),"[1]; 1 µM, n = 3",78.95±6.06%
same,Cell survival rate (%),"[1]; 3 µM, n = 3",78.12±1.49%
same,Result (water solubility class),[5],Freely soluble (Means that 1 g (ml) of solute can be dissolved in 1 to less than 10 ml of solvent;)
COC1=C(OC)C(=O)C(CCCCCCCCCCOP(=O)(O)O)=C(C)C1=O,Cell survival rate (%),"[1]; 0.3 µM, n = 3, listed as SIPI11527",78.95±2.82%
same,Cell survival rate (%),"[1]; 0.3 µM, n = 3, listed as SIPI11528",78.12±5.20%
same,Cell survival rate (%),"[1]; 0.3 µM, n = 3, listed as SIPI11529",81.30±3.20%
same,Cell survival rate (%),"[1]; 0.3 µM, n = 3, listed as SIPI11530",78.81±5.78%
same,Cell survival rate (%),"[1]; 1 µM, n = 3, listed as SIPI11527",79.22±3.67%
same,Cell survival rate (%),"[1]; 1 µM, n = 3, listed as SIPI11528",79.50±3.46%
same,Cell survival rate (%),"[1]; 1 µM, n = 3, listed as SIPI11529",89.20±2.56%
same,Cell survival rate (%),"[1]; 1 µM, n = 3, listed as SIPI11530",77.70±4.74%
same,Cell survival rate (%),"[1]; 3 µM, n = 3, listed as SIPI11527",79.09±3.91%
same,Cell survival rate (%),"[1]; 3 µM, n = 3, listed as SIPI11528",79.78±3.12%
same,Cell survival rate (%),"[1]; 3 µM, n = 3, listed as SIPI11529",94.46% and 94.46±2.81 %
same,Cell survival rate (%),"[1]; 3 µM, n = 3, listed as SIPI11530",78.67±1.97%
same,reduction of the cerebral infarct volume,"[6]; high-dose group 40 mg/kg, P<0.01 vs Model group",38.8%
same,cerebral infarct volume in tMCAO rats (result in words),"[6]; medium and high doses (20 and 40 mg/kg), P < 0.05 vs. Model group",significantly reduce the cerebral infarct volume
same,reduction of the cerebral infarct volume,"[6]; medium-dose group 20 mg/kg, P<0.05 vs Model group",31.1%
COC1=C(OC)C(=O)C(CCCCCCCCCCOP(=O)([O-])[O-])=C(C)C1=O.[K+].[K+],Cell survival rate (%),"[1]; 0.3 µM, n = 3",79.78±5.60%
same,Cell survival rate (%),"[1]; 1 µM, n = 3",79.36±5.99%
same,Cell survival rate (%),"[1]; 3 µM, n = 3",81.86±2.93%
same,Result (water solubility class),[5],Freely soluble (Means that 1 g (ml) of solute can be dissolved in 1 to less than 10 ml of solvent;)
COC1=C(OC)C(=O)C(CCCCCCCCCCOP(=O)([O-])[O-])=C(C)C1=O.[Na+].[Na+],Cell survival rate (%),"[1]; 0.3 µM, n = 3",78.12±6.55%
same,Cell survival rate (%),"[1]; 1 µM, n = 3",78.39±5.78%
same,Cell survival rate (%),"[1]; 3 µM, n = 3",84.63±2.14%
same,Result (water solubility class),[5],Freely soluble (Means that 1 g (ml) of solute can be dissolved in 1 to less than 10 ml of solvent;)

# “And” between values parts separate entries of the source, which are not always exact repeats. Equal values may be shown once.
